Source: patent US20110135757A1, “MICROAEROSOL-BASED DECONTAMINATION METHOD” (published 2011)

Assay: Decontamination effectiveness of MAEAS in the presence of Fe+2
Settings: FeSO4 added to sodium chloride for the production of MAEAS

In the case of FeSO4, the “effect on decontaminating effectiveness of MAEAS” value is reported as “positive effect”.
